Here are results for 1 protein from ChEMBL document CHEMBL1123068, “2-Fluoroformycin and 2-aminoformycin. Synthesis and biological activity” (J Med Chem, 1985).

Substrate in data set [1]: Nc1ncnc2c([C@@H]3O[C@H](CO)[C@@H](O)[C@H]3O)[nH]nc12
The data set is described as follows: (§1) Kinetic parameter was determined against calf intestine adenosine deaminase expressed as Vmax.

Substrate in data set [2]: Nc1nc(F)nc2c([C@@H]3O[C@H](CO)[C@@H](O)[C@H]3O)n[nH]c12
The data set is described as §1.

Substrate in data set [3]: Nc1nc(N)c2[nH]nc([C@@H]3O[C@H](CO)[C@@H](O)[C@H]3O)c2n1
The data set is described as §1.

The term Vmax denotes the top rate of the reaction or transport when substrate is in excess.

B1: Adenosine deaminase (Bos taurus), P56658 (protein)
chain: MAQTPAFNKPKVELHVHLDGAIKPETILYYGRKRGIALPADTPEELQNIIGMDKPLSLPEFLAKFDYYMPAIAGCREAVKRIAYEFVEMKAKDGVVYVEVRYSPHLLANSKVEPIPWNQAEGDLTPDEVVSLVNQGLQEGERDFGVKVRSILCCMRHQPSWSSEVVELCKKYREQTVVAIDLAGDETIEGSSLFPGHVKAYAEAVKSGVHRTVHAGEVGSANVVKEAVDTLKTERLGHGYHTLEDATLYNRLRQENMHFEVCPWSSYLTGAWKPDTEHPVVRFKNDQVNYSLNTDDPLIFKSTLDTDYQMTKNEMGFTEEEFKRLNINAAKSSFLPEDEKKELLDLLYKAYGMPSPASAEQCL
Regarding B1, the figures for the maximal velocity (Vmax) in data set [1], in data set [2] and in data set [3] were 4000 M/min/mg, 17 M/min/mg and 1250 M/min/mg, respectively.
